The structures appear in SMILES notation.

By UniProt entry, the sequences of proteins in these tests, tags left out.
UniProt P35372, whole entry, looked up: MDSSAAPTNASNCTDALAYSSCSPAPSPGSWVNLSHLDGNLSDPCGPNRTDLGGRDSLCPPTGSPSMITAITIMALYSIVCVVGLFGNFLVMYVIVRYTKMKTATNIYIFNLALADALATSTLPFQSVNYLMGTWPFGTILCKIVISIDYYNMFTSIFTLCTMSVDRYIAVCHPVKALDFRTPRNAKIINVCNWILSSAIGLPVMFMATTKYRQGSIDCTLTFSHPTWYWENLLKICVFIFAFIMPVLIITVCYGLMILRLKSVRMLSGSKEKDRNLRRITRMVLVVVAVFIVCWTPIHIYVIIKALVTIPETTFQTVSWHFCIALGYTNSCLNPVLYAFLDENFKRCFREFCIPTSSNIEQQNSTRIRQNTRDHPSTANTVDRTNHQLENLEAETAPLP

The nature of assay [1]: Receptor Binding Assay: NOP:The hNOP receptor binding assay was performed as homogeneous SPA-assay (scintillation proximity assay) using the assay buffer 50 mM TRIS-HCl. 10 mM MgCl2. 1 mM EDTA (pH 7.4). The final assay volume (250 μl/well) included 0.5 nM of [leucyl-3H]nociceptin as ligand (PerkinElmer Life Sciences. Inc. Boston. Mass. USA). and either test compound in dilution series or 1 μM unla. For orientation: SPA uses beads or plates that emit light when radiolabelled molecules are held near them.

In the next assay the target is Mu-type opioid receptor (Homo sapiens, UniProt P35372). Kind of assay: Receptor Binding Assay: MOP: The hMOP receptor binding assay was performed as homogeneous SPA-assay (scintillation proximity assay) using the assay buffer 50 mM TRIS-HCl (pH 7.4) supplemented with 0.052 mg/ml bovine serum albumin (Sigma-Aldrich Co. St. Louis. Mo.). The final assay volume (250 μl/well) included 1 nM of [N-allyl-2.3-3H]naloxone as ligand (PerkinElmer Life Sciences. Inc. Boston. Mass.

The term Ki denotes a measure of affinity in units of concentration, obtained from inhibition or displacement. Turning to `CCN[C@]1(c2ccccc2)CC[C@]2(CC1)CN(CC(C)(C)C(N)=O)C(=O)N2CC1CCC1`, the Ki is 625 nM in assay [1] and 2850 nM on Mu-type opioid receptor.

(Values after ChEMBL document CHEMBL5727992, “3-((hetero-)aryl)-8-amino-2-oxo-1,3-diaza-spiro-[4.5]-decane derivatives” (2020).)
